The text below walks through data of ChEMBL document CHEMBL4368908, “Inhibition of Inositol Polyphosphate Kinases by Quercetin and Related Flavonoids: A Structure-Activity Analysis” (J Med Chem, 2019).

Test [1] has as its target T1, Inositol hexakisphosphate kinase 2 (Homo sapiens, UniProt Q9UHH9).
T1 sequence (Q9UHH9 whole entry): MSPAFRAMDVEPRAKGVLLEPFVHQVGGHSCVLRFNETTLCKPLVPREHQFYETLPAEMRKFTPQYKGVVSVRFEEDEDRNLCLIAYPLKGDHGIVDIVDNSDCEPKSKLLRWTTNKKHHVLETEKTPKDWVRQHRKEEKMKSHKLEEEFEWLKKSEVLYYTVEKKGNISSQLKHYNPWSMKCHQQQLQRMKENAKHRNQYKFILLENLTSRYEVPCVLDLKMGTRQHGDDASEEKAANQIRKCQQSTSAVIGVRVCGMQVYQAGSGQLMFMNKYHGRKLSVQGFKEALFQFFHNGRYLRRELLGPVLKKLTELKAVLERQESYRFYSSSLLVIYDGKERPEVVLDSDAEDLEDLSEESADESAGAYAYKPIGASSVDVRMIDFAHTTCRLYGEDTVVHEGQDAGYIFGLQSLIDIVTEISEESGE
Put plainly: Inhibition of human IP6K2 using insP6 as substrate preincubated for 15 mins followed by substrate and measured after 30 mins by TR-FRET assay.

For a further test, the species on record is Homo sapiens. Kind of test: Selectivity ratio of IC50 for human IPMK to IC50 for human IP6K2. The essentials:
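Recombinant human IPMK (12 nM) or IP6K2 (400 nM) equilibrated 15 min at room temperature with compound (10-point, 0.005–100 μM, 1% DMSO) in 50 mM HEPES pH 7.5, 0.01% Brij-35, 10 mM MgCl₂, 1 mM EGTA. Reaction started with 10 μM ATP plus 10 μM InsP₃ (IPMK) or InsP₆ (IP6K2), run 30 min. ADP detected by Adapta TR-FRET. IC50 from 4-parameter fit.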

In the case of `O=c1c(O)c(-c2ccc(O)c(O)c2)oc2cc(O)cc(O)c12` [QUERCETIN], the IC50 in test [1] amounted to 700 nM. For the same molecule, the Ratio IC50 in the test filed under Homo sapiens was found to be 3.3.
